Read-outs that look alike come from different tables or passages of the source.
Columns and labels:
FAK = FAK (Homo sapiens, UniProt Q05397); experiment: Cell-based capture ELISA for inhibition of FAK autophosphorylation [pY397] in U87MG cells
[1] = target: GST-tagged full-length FAK enzyme (PTK2) (Homo sapiens, UniProt Q05397); experiment: Biochemical Omnia Assay (FAK); conditions: read-out: FAK Activity Biochemical OMNIA, [ATP] = 50uM, mean IC50
[2] = read-out: FAK Activity Mechanistic (U87MG) HP, 50% (v/v) human plasma, mean IC50
[3] = read-out: FAK Activity Mechanistic (U87MG) MP, 50% (v/v) mouse plasma, mean IC50
[4] = read-out: FAK Activity Mechanistic (U87MG) NP, no plasma present, mean IC50

By UniProt entry, the sequences of proteins in these tests, tags left out.
UniProt Q05397, whole entry: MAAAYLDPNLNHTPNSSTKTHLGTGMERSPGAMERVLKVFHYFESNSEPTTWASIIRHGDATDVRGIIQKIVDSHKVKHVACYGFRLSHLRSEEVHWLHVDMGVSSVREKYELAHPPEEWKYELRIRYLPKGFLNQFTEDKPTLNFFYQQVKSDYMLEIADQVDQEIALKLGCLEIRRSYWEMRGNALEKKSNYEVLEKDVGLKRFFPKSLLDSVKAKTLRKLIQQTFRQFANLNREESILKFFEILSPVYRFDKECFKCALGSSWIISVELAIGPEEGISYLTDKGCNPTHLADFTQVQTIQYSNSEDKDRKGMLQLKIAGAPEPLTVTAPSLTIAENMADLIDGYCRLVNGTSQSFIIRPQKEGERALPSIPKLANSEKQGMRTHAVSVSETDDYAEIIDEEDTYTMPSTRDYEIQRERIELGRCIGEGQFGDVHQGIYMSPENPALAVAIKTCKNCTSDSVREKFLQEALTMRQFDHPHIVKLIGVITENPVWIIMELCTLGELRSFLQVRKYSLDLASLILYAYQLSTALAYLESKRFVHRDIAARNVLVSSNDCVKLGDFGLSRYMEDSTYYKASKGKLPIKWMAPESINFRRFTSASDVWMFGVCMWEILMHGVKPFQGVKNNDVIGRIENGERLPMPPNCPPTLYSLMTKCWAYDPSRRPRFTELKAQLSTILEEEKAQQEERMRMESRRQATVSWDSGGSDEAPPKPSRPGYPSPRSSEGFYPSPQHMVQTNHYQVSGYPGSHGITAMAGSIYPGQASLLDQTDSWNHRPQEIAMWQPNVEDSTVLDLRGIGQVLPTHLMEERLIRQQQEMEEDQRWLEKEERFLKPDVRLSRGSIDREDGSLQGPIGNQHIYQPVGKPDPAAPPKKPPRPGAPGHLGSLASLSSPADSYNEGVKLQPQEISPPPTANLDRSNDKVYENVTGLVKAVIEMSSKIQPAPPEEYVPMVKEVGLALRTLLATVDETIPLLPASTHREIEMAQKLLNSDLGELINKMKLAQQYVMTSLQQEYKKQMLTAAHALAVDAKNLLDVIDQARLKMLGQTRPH

Structure (SMILES) | IC50 (FAK; [2]) [nM] | IC50 (FAK; [3]) [nM] | IC50 (FAK; [4]) [nM] | IC50 [1] [nM]
CCOP1(=O)Cc2ccc(c(OC)c2)Nc2ncc(C(F)(F)F)c(n2)Nc2ccc(cc2C(=O)NC)-c2cnn(c2)CCCO1 (single isomer, unassigned) [4A] | 400 to 4000 | 400 to 4000 | < 400 | < 400
CNC(=O)c1nc2ccc1Nc1nc(ncc1C(F)(F)F)Nc1ccc(cc1OC)CP(C)(=O)OCCCn1cc-2cn1 (single isomer, unassigned) [Example 61A] | < 400 | < 400 | < 400 | < 400
CCOP1(=O)Cc2ccc(c(OC)c2)Nc2ncc(C(F)(F)F)c(n2)Nc2ccc(nc2C(=O)NC)-c2cn(nc2C)CC2(COC2)CO1 (single isomer, unassigned) [Example 60A] | < 400 | < 400 | < 400 | < 400
CCOP1(=O)Cc2ccc(c(OC)c2)Nc2ncc(C(F)(F)F)c(n2)Nc2ccc(nc2C(=O)NC)-c2cn(nc2Cl)CCCO1 (centres unmarked) | < 400 | 400 to 4000 | < 400 | < 400
CCOP1(=O)Cc2ccc(c(OC)c2Cl)Nc2ncc(C(F)(F)F)c(n2)Nc2ccc(nc2C(=O)NC)-c2cnn(c2)CC2(COC2)CO1 (single isomer, unassigned) [55B] | > 4000 | > 4000 | 400 to 4000 | < 400
CCOP1(=O)Cc2ccc(c(Cl)c2)Nc2ncc(C(F)(F)F)c(n2)Nc2ccc(nc2C(=O)NC)-c2cnn(c2)CCCO1 (centres unmarked) | 400 to 4000 | 400 to 4000 | < 400 | < 400
CCOP1(=O)Cc2ccc(c(OC)c2)Nc2ncc(C(F)(F)F)c(n2)Nc2ccc(cc2C(=O)NC)-c2cnn(c2)CCCO1 (single isomer, unassigned) [4B] | < 400 | < 400 | < 400 | < 400
CCOP1(=O)Cc2ccc(c(OC)c2)Nc2ncc(C(F)(F)F)c(n2)Nc2ccc(nc2C(=O)NC)-c2cnn(c2)C(C)(C)CCO1 (centres unmarked) | < 400 | < 400 | < 400 | < 400
CCOP1(=O)Cc2ccc(c(OC)c2)Nc2ncc(C(F)(F)F)c(n2)Nc2ccc(nc2C(=O)NC)-c2cn(nc2OC)CCCO1 (centres unmarked) | < 400 | < 400 | < 400 | < 400
CCP1(=O)Cc2ccc(c(OC)c2)Nc2ncc(C(F)(F)F)c(n2)Nc2ccc(nc2C(=O)NC)-c2cnn(c2)CCCO1 (centres unmarked) | < 400 | < 400 | < 400 | < 400
CNC(=O)c1nc2ccc1Nc1nc(ncc1C(F)(F)F)Nc1ccc(cc1OC)CP(=O)(OC(C)C)OCCCn1cc-2cn1 (centres unmarked) | < 400 | < 400 | < 400 | –
CNC(=O)c1nc2ccc1Nc1nc(ncc1C(F)(F)F)Nc1ccc(cc1OC)CP(C)(=O)OCC(C)(C)Cn1cc-2cn1 (single isomer, unassigned) [62A] | < 400 | 400 to 4000 | < 400 | –
CCOP1(=O)Cc2cc(OC)c(cc2Cl)Nc2ncc(C(F)(F)F)c(n2)Nc2ccc(nc2C(=O)NC)-c2cnn(c2)CCCO1 (centres unmarked) | > 4000 | > 4000 | 400 to 4000 | < 400
CCNC(=O)c1nc2ccc1Nc1nc(ncc1C(F)(F)F)Nc1ccc(cc1OC)CP(=O)(OCC)OCC1(COC1)Cn1cc-2cn1 (centres unmarked) | < 400 | < 400 | < 400 | < 400
CCOP1(=O)Cc2cc(OC)c(cc2Cl)Nc2ncc(C(F)(F)F)c(n2)Nc2ccc(nc2C(=O)NC)-c2cnn(c2)CC2(COC2)CO1 (single isomer, unassigned) | < 400 | < 400 | < 400 | < 400
CCOP1(=O)Cc2ccc(c(OC)c2)Nc2ncc(C(F)(F)F)c(n2)Nc2ccc(nc2C(=O)NC)-c2cn(nn2)CCCO1 (single isomer, unassigned) | < 400 | < 400 | < 400 | < 400
CCCP1(=O)Cc2ccc(c(OC)c2)Nc2ncc(C(F)(F)F)c(n2)Nc2ccc(nc2C(=O)NC)-c2cnn(c2)CCCO1 (centres unmarked) | < 400 | < 400 | < 400 | < 400
CCOP1(=O)Cc2ccc(c(Cl)c2)Nc2ncc(C(F)(F)F)c(n2)Nc2ccc(nc2C(=O)NC)-c2cnn(c2)CC2(COC2)CO1 (centres unmarked) | < 400 | < 400 | < 400 | < 400
CCCP1(=O)Cc2ccc(c(OC)c2)Nc2ncc(C(F)(F)F)c(n2)Nc2ccc(cc2C(=O)NC)-c2cnn(c2)CCCO1 (single isomer, unassigned) [66B] | < 400 | < 400 | < 400 | < 400
CNC(=O)c1nc2ccc1Nc1nc(ncc1C(F)(F)F)Nc1ccc(cc1OC)CP(C)(=O)OCC(C)(C)Cn1cc-2cn1 (single isomer, unassigned) [62B] | < 400 | < 400 | < 400 | –

— patent US9133224B2, “Macrocyclic kinase inhibitors” (OSI Pharmaceuticals, LLC, priority 2010, dated 2015)
